ChEMBL document CHEMBL1144008, “Synthesis, nitric oxide release, and anti-leukemic activity of glutathione-activated nitric oxide prodrugs: Structural analogues of PABA/NO, an anti-cancer lead compound” (Bioorg Med Chem, 2008)

Tested on: HL-60
Experiment: Antiproliferative activity against human HL60 cells by MTS assay
Assay type: functional, cell-based
How it was run: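 HL-60 human myeloid leukemia cells grown in RPMI 1640 with 10% FBS, 37 °C, 5% CO2. Seeded 10,000 cells/100 µL; compounds (DMSO stocks serially diluted in PBS, final DMSO 0.5%) added 24 h after plating. Viable cells read by MTS after 3 days. IC50 from nonlinear fit of absorbance vs concentration to a Hill-slope equation.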

CN(C)/[N+]([O-])=N/Oc1cc(OC(=O)c2ccc([N+](=O)[O-])cc2)c([N+](=O)[O-])cc1[N+](=O)[O-]
IC50: > 25 µM
